Experimental findings from publication PMC11887051 (ACS Chemical Neuroscience, 2025) are described below.

The chains behind the UniProt entries cited, without tags or fusion partners.
UniProt O95069, whole entry: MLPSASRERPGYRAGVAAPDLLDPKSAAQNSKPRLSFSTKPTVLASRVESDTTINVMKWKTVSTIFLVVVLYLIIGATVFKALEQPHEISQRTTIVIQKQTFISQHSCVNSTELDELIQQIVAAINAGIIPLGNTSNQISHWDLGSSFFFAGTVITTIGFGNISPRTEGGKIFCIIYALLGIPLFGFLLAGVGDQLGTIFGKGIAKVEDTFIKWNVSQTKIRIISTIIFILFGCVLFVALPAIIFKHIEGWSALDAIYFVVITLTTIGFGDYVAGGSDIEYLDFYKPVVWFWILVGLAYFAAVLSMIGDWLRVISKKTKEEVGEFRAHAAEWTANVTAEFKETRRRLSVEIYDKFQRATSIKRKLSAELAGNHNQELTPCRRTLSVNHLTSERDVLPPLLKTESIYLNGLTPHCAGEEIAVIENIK
UniProt P57789, whole entry: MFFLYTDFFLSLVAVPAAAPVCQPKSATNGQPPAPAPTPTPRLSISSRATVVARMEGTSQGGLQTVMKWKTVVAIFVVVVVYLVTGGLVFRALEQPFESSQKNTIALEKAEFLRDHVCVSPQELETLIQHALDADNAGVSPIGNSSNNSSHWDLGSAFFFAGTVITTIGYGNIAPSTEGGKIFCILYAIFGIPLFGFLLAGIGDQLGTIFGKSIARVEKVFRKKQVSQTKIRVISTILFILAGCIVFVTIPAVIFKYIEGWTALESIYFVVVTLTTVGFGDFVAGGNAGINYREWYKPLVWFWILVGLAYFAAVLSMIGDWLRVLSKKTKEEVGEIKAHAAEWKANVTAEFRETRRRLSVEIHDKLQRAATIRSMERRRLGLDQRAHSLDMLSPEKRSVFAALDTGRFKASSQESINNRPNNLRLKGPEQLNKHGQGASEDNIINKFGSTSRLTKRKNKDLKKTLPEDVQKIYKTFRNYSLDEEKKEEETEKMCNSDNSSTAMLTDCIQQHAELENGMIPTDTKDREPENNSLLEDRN

Structures are written as SMILES.

The target of one assay is TREK-1 (Homo sapiens, UniProt O95069). The experiment in a line: Additional TREK SAR (Figure S5), TREK-1, assay not named. The class given is cell-based.
In a further assay the target is TREK-2 (Homo sapiens, UniProt P57789). The experiment in a line: Additional TREK SAR (Figure S5), TREK-2, assay not named. The class given is cell-based.

Take `O=C(NCc1ccc(OC(F)(F)F)c(F)c1)c1ccc2ncnn2c1`: on TREK-1, the “TREK-1 (%)” value is given as 90%. Moreover, at TREK-2, the “TREK-2 (%)” value worked out at 141%.

On to `O=C(NCc1ccc(OC(F)(F)F)cc1)c1ccc(-n2cncn2)cc1`, for which the “TREK-1 (%)” value on TREK-1 was found to be 57%. Besides, the “TREK-2 (%)” value on TREK-2 turned out to be 152%.

Take `O=C(NCc1ccc(OC(F)(F)F)c(F)c1)c1ccn2cnnc2c1`: the “TREK-1 (%)” value on TREK-1 amounted to 90%. The “TREK-2 (%)” value at TREK-2 turned out to be 182%.

`O=C(NCc1ccc(OC(F)(F)F)cc1F)c1ccn2cnnc2c1`: the “TREK-1 (%)” value at TREK-1 came to 98%. For the same compound, the “TREK-2 (%)” value at TREK-2 is recorded as 185%.

On to `O=C(NCc1ccc(OC(F)(F)F)cc1F)c1cc2ncccn2n1`, for which the “TREK-1 (%)” value on TREK-1 was determined as 32%. The “TREK-2 (%)” value at TREK-2 was 161%.

`COc1cc(OC(F)(F)F)ccc1CNC(=O)c1ccn2cnnc2c1`: the “TREK-1 (%)” value at TREK-1 came to 75%. Further, the “TREK-2 (%)” value at TREK-2 worked out at 152%.
